Two compounds from ChEMBL document CHEMBL4834437, “Improvement of Oral Bioavailability of Pyrazolo-Pyridone Inhibitors of the Interaction of DCN1/2 and UBE2M” (J Med Chem, 2021) can be followed below.

The data set can be described thus: Kinetic solubility of the compound in PBS buffer at pH 7.4 incubated for 18 hrs by LC-MS analysis. Type of data set: physicochemical. To be noted: read-out: Kinetic_solubility.

SMILES strings stand for the structures. Values after ≈ are worked out from the molar mass of the structure shown.

As for `CCN1C(=O)[C@@H](NC(=O)c2cccc(C(F)(F)F)c2)[C@@H](c2ccc(F)nc2)c2c(C)nn(-c3ccccc3)c21`, the solubility kinetic at 18 h is 16.6 µM (≈ 8.92 µg/mL). Take `CCN1C(=O)[C@@H](NC(=O)c2cccc(C)c2)[C@@H](c2ccc(F)cc2)c2c(C)nn(-c3ccccc3)c21` (relative stereo): the solubility kinetic at 18 h stood at 16.6 µM (≈ 8.01 µg/mL).
